Literature values as cited in paper PMC11042244 (RSC Medicinal Chemistry, 2024).

Tested on: HNE
Set-up: method as in PMID 12161131
Details: printed in picture of Fig. 1; cited from earlier work

CC(C)(C)C(=O)Oc1ccc(S(=O)(=O)Nc2ccccc2C(=O)NCC(=O)O)cc1 [Sivelestat, reference compound]
IC50: 0.044 µM
